Consider three molecules from article PMC3602246 (BMC Pharmacology & Toxicology, 2013).

Sequences of proteins named here, by UniProt entry; tags and fusion partners are left off.
UniProt P35372, whole entry: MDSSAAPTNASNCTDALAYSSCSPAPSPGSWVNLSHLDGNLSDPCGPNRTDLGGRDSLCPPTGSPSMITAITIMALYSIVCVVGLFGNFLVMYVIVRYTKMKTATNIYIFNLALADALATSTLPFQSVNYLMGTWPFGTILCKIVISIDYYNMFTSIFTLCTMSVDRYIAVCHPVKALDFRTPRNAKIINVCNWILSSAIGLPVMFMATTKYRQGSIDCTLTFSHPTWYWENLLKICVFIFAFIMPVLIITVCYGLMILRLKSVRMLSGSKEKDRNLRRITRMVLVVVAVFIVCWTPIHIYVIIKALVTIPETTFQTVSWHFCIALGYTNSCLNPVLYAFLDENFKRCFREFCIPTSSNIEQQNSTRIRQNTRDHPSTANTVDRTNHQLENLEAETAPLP

In one assay the target is KOR. The settings on record: read-out: Ki, affinity binding to the KOR; cited from earlier work.
In another assay the target is DOR. Particulars: read-out: Ki, affinity binding to the DOR; cited from earlier work.
Assay [1] addresses T1, human mu opioid receptor (MOR1) (Homo sapiens, UniProt P35372).
T1 construct: FLAG; expressed in transfected cells
The assay is classed as cell-based.

pKi: −log10 of the molar value.

On to `Oc1ccc2c3c1O[C@H]1c4[nH]c5ccccc5c4C[C@@]4(O)[C@@H](C2)N(CC2CC2)CC[C@]314` [Naltrindole], for which the negative-log Ki (pKi) at KOR is 7.18.
Consider `COC(=O)[C@@H]1C[C@H](OC(C)=O)C(=O)[C@H]2[C@@]1(C)CC[C@H]1C(=O)O[C@H](c3ccoc3)C[C@]21C` [Salvinorin A], for which, at DOR, the negative-log Ki (pKi) is less than 6.00.
Turning to Dynorphin A (1–13), the “DMR agonist activity classification, MOR” value in assay [1] is listed as “Full agonist”.

The term pKi denotes −log10 of the Ki, conventionally taken in molar units.
